In ChEMBL document CHEMBL1156503, “Long-acting kappa opioid antagonists disrupt receptor signaling and produce noncompetitive effects by activating c-Jun N-terminal kinase” (J Biol Chem, 2007) one finds EC50 data, which are given here for one compound.

Protein sequences, listed by entry. Tags and fused reporters are not part of them. Lines headed by an entry give the natural chain unless they say otherwise; changes in a name come on top.
UniProt P45983: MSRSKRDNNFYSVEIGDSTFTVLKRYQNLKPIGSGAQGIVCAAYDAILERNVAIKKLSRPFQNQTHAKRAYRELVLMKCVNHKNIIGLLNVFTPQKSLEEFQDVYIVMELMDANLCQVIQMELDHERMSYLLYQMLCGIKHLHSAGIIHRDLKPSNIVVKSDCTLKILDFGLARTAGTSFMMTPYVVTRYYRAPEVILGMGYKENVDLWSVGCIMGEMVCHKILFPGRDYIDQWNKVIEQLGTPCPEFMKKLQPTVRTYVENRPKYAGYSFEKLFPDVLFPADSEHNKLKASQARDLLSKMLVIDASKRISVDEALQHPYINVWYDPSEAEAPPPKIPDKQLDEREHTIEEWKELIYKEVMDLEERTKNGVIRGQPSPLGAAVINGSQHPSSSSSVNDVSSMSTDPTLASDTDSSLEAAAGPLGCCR
UniProt P53779: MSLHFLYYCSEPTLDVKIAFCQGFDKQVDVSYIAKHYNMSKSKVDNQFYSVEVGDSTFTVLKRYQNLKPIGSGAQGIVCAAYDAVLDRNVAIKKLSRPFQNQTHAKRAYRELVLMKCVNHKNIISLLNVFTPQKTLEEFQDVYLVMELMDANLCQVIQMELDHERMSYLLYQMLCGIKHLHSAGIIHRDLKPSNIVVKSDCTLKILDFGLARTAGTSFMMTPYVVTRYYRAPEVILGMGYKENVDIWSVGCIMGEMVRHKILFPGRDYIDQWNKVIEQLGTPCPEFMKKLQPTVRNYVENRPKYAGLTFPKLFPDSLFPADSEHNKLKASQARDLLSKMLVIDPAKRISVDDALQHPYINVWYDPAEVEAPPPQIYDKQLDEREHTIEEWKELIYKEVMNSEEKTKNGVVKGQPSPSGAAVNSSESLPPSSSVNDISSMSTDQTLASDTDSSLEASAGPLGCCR
UniProt P45984: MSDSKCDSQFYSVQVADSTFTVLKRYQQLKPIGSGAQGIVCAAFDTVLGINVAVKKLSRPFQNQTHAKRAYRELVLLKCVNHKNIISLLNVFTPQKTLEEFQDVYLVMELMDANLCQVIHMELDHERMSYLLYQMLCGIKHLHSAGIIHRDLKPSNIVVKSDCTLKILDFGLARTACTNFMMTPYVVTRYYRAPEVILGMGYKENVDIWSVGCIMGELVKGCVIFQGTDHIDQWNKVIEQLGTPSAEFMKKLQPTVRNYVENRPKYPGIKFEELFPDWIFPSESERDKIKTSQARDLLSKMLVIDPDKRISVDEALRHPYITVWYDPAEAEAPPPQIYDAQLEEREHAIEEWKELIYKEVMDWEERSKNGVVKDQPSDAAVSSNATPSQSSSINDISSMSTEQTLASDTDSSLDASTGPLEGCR

The target of the test is c-Jun N-terminal kinase, JNK (Homo sapiens, UniProt P45983+P53779+P45984). Kind of test: Increase of JNK phosphorylation in U50488 treated HEK293 cells expressing GFP tagged kappa opioid receptor.

What is called EC50 is the concentration at which the effect is half-maximal. For `CN(C(=O)Cc1ccc(Cl)c(Cl)c1)C1CCCCC1N1CCCC1` (stereo unspecified), the concentration for a half-maximal effect (EC50) is 1.24 µM.
